Results taken from ChEMBL document CHEMBL1212786 (Antimicrob Agents Chemother, 2010).

Chains of the proteins cited; added tags and fusions are not shown.
UniProt P62937, whole entry: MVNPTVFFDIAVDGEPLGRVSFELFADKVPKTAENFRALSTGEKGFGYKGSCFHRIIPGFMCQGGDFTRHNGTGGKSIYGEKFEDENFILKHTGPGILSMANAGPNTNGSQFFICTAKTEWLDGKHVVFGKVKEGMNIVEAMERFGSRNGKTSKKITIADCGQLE

Biological target: Peptidyl-prolyl cis-trans isomerase A (Homo sapiens, UniProt P62937)
Experiment: Inhibition of calcineurin phosphatase activity of CyPA

**Q.** For `C/C=C/C[C@@H](C)[C@@H](O)[C@H]1C(=O)N[C@@H](CC)C(=O)N(C)C(SCCN(C)C)C(=O)N(C)[C@@H](CC(C)(C)O)C(=O)N[C@@H](C(C)C)C(=O)N(C)[C@@H](CC(C)C)C(=O)N[C@@H](C)C(=O)N[C@H](C)C(=O)N(C)[C@@H](CC(C)C)C(=O)N(C)[C@@H](CC(C)C)C(=O)N(C)[C@@H](C(C)C)C(=O)N1C` (single isomer, unassigned) [SCY 635], which Ki is on record?
**A.** 1.84 nM
